Experimental data taken from patent publication US7727731B2, “Potent, selective and non toxic c-kit inhibitors” (AB Science, priority 2001, dated 2010).

Test system: P815 (endogenous c-kit carrying the 814V mutation)
Test: Proliferation test, P815 cells
Conditions: doses inferior to toxicity level (<10 μM)

Q: STI 571 was tested. Which “Effect on proliferation of cells carrying 814 mutation, P815” value did it give?
A: The value was “not the proliferation of cells carrying 814 mutation”.
